Data as given in ChEMBL document CHEMBL1142908, “Selective L-nitroargininylaminopyrrolidine and L-nitroargininylaminopiperidine neuronal nitric oxide synthase inhibitors” (Bioorg Med Chem, 2007).

Biological target: T1, Nitric oxide synthase 3 (Bos taurus, UniProt P29473)
T1 sequence (P29473 whole entry): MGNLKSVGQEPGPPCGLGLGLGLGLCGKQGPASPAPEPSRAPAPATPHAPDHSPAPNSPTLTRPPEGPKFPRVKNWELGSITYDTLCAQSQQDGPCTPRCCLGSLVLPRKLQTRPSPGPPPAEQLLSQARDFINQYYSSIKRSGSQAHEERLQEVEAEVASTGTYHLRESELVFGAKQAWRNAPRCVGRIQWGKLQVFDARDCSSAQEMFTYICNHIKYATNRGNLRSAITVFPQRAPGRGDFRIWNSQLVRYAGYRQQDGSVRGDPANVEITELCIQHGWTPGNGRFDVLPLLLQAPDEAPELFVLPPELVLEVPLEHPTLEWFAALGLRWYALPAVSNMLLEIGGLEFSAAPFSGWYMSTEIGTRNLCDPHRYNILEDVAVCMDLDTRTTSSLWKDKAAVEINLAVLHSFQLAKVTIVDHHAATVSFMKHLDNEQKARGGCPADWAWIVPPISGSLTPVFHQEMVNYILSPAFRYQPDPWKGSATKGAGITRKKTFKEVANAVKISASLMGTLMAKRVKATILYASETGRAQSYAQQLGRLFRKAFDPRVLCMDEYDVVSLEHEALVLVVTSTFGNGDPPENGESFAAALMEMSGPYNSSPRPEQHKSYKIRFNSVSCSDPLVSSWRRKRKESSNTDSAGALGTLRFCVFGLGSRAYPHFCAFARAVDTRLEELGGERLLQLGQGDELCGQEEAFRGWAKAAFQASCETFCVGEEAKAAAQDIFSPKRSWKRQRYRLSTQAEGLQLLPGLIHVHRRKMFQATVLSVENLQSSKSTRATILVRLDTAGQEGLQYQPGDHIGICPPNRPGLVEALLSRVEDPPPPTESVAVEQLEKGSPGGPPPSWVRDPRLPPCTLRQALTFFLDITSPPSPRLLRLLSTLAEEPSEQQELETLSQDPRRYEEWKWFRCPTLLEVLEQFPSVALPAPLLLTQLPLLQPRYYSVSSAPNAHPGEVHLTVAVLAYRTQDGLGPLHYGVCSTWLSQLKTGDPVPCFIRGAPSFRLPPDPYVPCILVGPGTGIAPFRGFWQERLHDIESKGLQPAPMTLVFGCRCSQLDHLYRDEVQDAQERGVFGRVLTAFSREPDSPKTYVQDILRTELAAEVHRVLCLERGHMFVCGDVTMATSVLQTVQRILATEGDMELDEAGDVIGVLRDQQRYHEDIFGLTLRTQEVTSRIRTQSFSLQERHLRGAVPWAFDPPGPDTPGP
Assay: Inhibition of bovine recombinant eNOS expressed in Escherichia coli assessed as nitric oxide production by hemoglobin capture assay

NC(=O)[C@@H]1C[C@@H](NC(=O)[C@@H](N)CCC/N=C(\N)N[N+](=O)[O-])CN1
Ki: 72 µM
